Legend:
[1] = test system: recombinant green fluorescent protein (GFP)-expressing RSV virus (strain A2); format: cell-based; details: A549 cells, FACS, read-out: EC50, block of viral infection of cells
Method: The inhibitory activity of the peptides of the invention was assessed in a cellular viral fusion assay as compared to comparative peptides as follows. A549 cells were infected with a recombinant green fluorescent protein (GFP)-expressing RSV virus (strain A2) obtained as described below and in Hallak et al., 2000, Virology, 271:264-275, and the inhibitory activity of the peptides was quantified by flow cytometry.
Following rapid thawing of the frozen eGFP encoding RSV virus at […], the virus was vortexed for 2 min, and pipetted up and down to break aggregates. Serial 4-fold dilutions of inhibitors were prepared in glass tubes and mixed with a volume of virus required to achieve approximately 50% of infection in 200 μl of media containing 2% of FCS. The resulting mixture was added to 24-well plates containing A549 cells. Cells were incubated for 2 hours at 37° C., the media was replaced, and cells were incubated for an additional 24 hours. Cells were treated with 300 μl of trypsin for 10 min at 37° C., and the detached cells were diluted in 1 ml of culture medium. Following centrifugation at 1′700 rpm, the pellet was resuspended in 300 μl of PBS+1% SBF (V/V) and GFP positive cells were counted by FACS analysis.

RSV-mCherry = format: cell-based, HRSV; details: HEp-2 cells, 0.2 MOI RSV-mCherry, 48 h
Method: The inhibitory activity of the peptides of the invention was assessed in HEp-2 cells as described below:
A mCherry-expressing virus recently developed (Rameix-Welti et al., 2014, Nat. Commun., 5:5104) was used to avoid the cumbersome manipulations required with the GFP-expressing virus. Under these assay conditions peptides of the invention 4a, 4ca, 4bb and 4bb′ show clear higher activities as compared to comparative peptides T118, 4ef, 4bf (Table 5).
HEp-2 cells were seeded at 5×10^4 cells per well in 96 wells plate the day before the infection. Peptides were 2-fold serially diluted in DMSO (11 dilutions), then further diluted in MEM medium and pre-incubated for 15-20 minutes with 0.2 MOI of RSV-mCherry (Rameix-Welti et al., 2014, supra). Following the washing of Hep-2 cells with MEM without phenol red medium, the cells were incubated with the virus/peptide mixtures for a period of 1 h30-2 h. The cells were washed and further incubated in MEM media containing fetal bovine serum and the same concentration of peptide that was used during the infection step. Plates were incubated 48 h at 37° C. and the mCherry fluorescence was measured using a spectrofluorometer (Tecan infinite M200PRO) with excitation and emission wavelengths of 580 and 620 nm, respectively (expressed in relative fluorescence units RFU). Non-infected HEp-2 cells were used as standards for fluorescence background levels. Each experiment was performed in duplicate and repeated at least twice.

Row | SMILES | EC50 [1] | EC50 (RSV-mCherry)
1 | CC[C@H](C)[C@H](NC(=O)[C@H](CCCCN)NC(=O)[C@H](CCC(=O)O)NC(C)=O)C(=O)N[C@@]1(C)CCCC=CCCC[C@@](C)(C(=O)N[C@@H](Cc2ccccc2)C(=O)N[C@H](C(=O)N[C@@]2(C)CCCC=CCCC[C@@](C)(C(=O)N[C@@H](CC(C)C)C(=O)N[C@@H](CC(C)C)C(=O)N[C@@H](Cc3c[nH]cn3)C(=O)N[C@@H](CC(N)=O)C(=O)N[C@H](C(N)=O)C(C)C)NC(=O)[C@H](CC(=O)O)NC(=O)[C@H](CO)NC(=O)[C@H](CCCCN)NC2=O)[C@@H](C)CC)NC(=O)[C@H](CC(C)C)NC(=O)[C@H](CO)NC(=O)[C@H](CCC(N)=O)NC1=O [Peptide 4bb, EKI Xaa4 QSL Xaa8 FI Xaa11 KSD Xaa15 LLHNV] | 2270 nM | 0.74 ± 0.27 µM
2 | CC[C@H](C)[C@@H]1NC(=O)[C@H](Cc2ccccc2)NC(=O)[C@@H](NC(=O)[C@H](CC(C)C)NC(=O)[C@H](CO)NC(=O)[C@@H]2CCCC=CCCC[C@@](C)(NC(=O)[C@H](CCC(=O)O)NC(C)=O)C(=O)N[C@@H]([C@@H](C)CC)C(=O)N[C@@H](CC(N)=O)C(=O)N2)CCCC=CCCC[C@@H](C(=O)N[C@@H](CO)C(=O)N[C@@H](CC(=O)O)C(=O)N[C@@H](CCC(=O)O)C(=O)N[C@@H](CC(C)C)C(=O)N[C@@H](CC(C)C)C(=O)N[C@@H](Cc2c[nH]cn2)C(=O)N[C@@H](CC(N)=O)C(=O)N[C@H](C(N)=O)C(C)C)NC(=O)[C@H](CCCNC(=N)N)NC1=O [Peptide 4ca2] |  | 0.33 ± 0.05 µM
3 | CC[C@H](C)[C@H](NC(=O)[C@H](CCCCN)NC(=O)[C@H](CCC(=O)O)NC(C)=O)C(=O)N[C@H]1CCCC=CCCC[C@@H](C(=O)N[C@@H](Cc2ccccc2)C(=O)N[C@H](C(=O)N[C@H]2CCCC=CCCC[C@@H](C(=O)N[C@@H](CC(C)C)C(=O)N[C@@H](CC(C)C)C(=O)N[C@@H](Cc3c[nH]cn3)C(=O)N[C@@H](CC(N)=O)C(=O)N[C@H](C(N)=O)C(C)C)NC(=O)[C@H](CC(=O)O)NC(=O)[C@H](CO)NC(=O)[C@H](CCCCN)NC2=O)[C@@H](C)CC)NC(=O)[C@H](CC(C)C)NC(=O)[C@H](CO)NC(=O)[C@H](CCC(N)=O)NC1=O [4bb′] |  | 0.99 µM
4 | CC[C@H](C)[C@@H]1NC(=O)[C@H](Cc2ccccc2)NC(=O)[C@@](C)(NC(=O)[C@H](CC(C)C)NC(=O)[C@H](CO)NC(=O)[C@]2(C)CCCC=CCCC[C@@](C)(NC(=O)[C@H](CCC(=O)O)NC(C)=O)C(=O)N[C@@H]([C@@H](C)CC)C(=O)N[C@@H](CC(N)=O)C(=O)N2)CCCC=CCCC[C@@](C)(C(=O)N[C@@H](CO)C(=O)N[C@@H](CC(=O)O)C(=O)N[C@@H](CCC(=O)O)C(=O)N[C@@H](CC(C)C)C(=O)N[C@@H](CC(C)C)C(=O)N[C@@H](Cc2c[nH]cn2)C(=O)N[C@@H](CC(N)=O)C(=O)N[C@H](C(N)=O)C(C)C)NC(=O)[C@H](CCCNC(=N)N)NC1=O [Peptide 4ca] | 4080 nM | 0.59 ± 0.13 µM
5 | CC[C@H](C)[C@H](NC(=O)[C@H](CCCCN)NC(=O)[C@H](CCC(=O)O)NC(C)=O)C(=O)N[C@@H](CC(N)=O)C(=O)N[C@@H](CCC(N)=O)C(=O)N[C@@H](CO)C(=O)N[C@@H](CC(C)C)C(=O)N[C@@]1(C)CCCC=CCCC[C@@](C)(C(=O)N[C@@H](CO)C(=O)N[C@@H](CC(=O)O)C(=O)N[C@@]2(C)CCCC=CCCC[C@@](C)(C(=O)N[C@H](C(N)=O)C(C)C)NC(=O)[C@H](Cc3c[nH]cn3)NC(=O)[C@H](CC(C)C)NC(=O)[C@H](CC(C)C)NC2=O)NC(=O)[C@H](CCCNC(=N)N)NC(=O)[C@H]([C@@H](C)CC)NC(=O)[C@H](Cc2ccccc2)NC1=O [Peptide 4a, EKINQSL Xaa8 FIR Xaa12 SD Xaa15 LLH Xaa19 V] | 10600 nM | 
6 | CC[C@H](C)[C@@H]1NC(=O)[C@H](Cc2ccccc2)NC(=O)[C@@](C)(NC(=O)[C@H](CC(C)(C)C)NC(=O)[C@H](CO)NC(=O)[C@]2(C)CCCC=CCCC[C@@](C)(NC(=O)[C@H](CCC(=O)O)NC(C)=O)C(=O)N[C@@H]([C@@H](C)CC)C(=O)N[C@@H](CC(N)=O)C(=O)N2)CCCC=CCCC[C@@](C)(C(=O)N[C@@H](CO)C(=O)N[C@@H](CC(=O)O)C(=O)N[C@@H](CCC(=O)O)C(=O)N[C@@H](CC(C)C)C(=O)N[C@@H](CC(C)C)C(=O)N[C@@H](Cc2c[nH]cn2)C(=O)N[C@@H](CC(N)=O)C(=O)N[C@H](C(N)=O)C(C)C)NC(=O)[C@H](CCCNC(=N)N)NC1=O [Peptide 4ca-var1] |  | 1.36 ± 0.19 µM
7 | CC[C@H](C)[C@@H]1NC(=O)[C@H](Cc2ccccc2)NC(=O)[C@@](C)(NC(=O)[C@@H](NC(=O)[C@H](CO)NC(=O)[C@]2(C)CCCC=CCCC[C@@](C)(NC(=O)[C@H](CCC(=O)O)NC(C)=O)C(=O)N[C@@H]([C@@H](C)CC)C(=O)N[C@@H](CC(N)=O)C(=O)N2)C2CCCCC2)CCCC=CCCC[C@@](C)(C(=O)N[C@@H](CO)C(=O)N[C@@H](CC(=O)O)C(=O)N[C@@H](CCC(=O)O)C(=O)N[C@@H](CC(C)C)C(=O)N[C@@H](CC(C)C)C(=O)N[C@@H](Cc2c[nH]cn2)C(=O)N[C@@H](CC(N)=O)C(=O)N[C@H](C(N)=O)C(C)C)NC(=O)[C@H](CCCNC(=N)N)NC1=O [Peptide 4ca-var3] |  | 0.77 ± 0.08 µM
8 | CC[C@H](C)[C@@H]1NC(=O)[C@H](Cc2ccccc2)NC(=O)[C@@](C)(NC(=O)[C@H](CC(C)C)NC(=O)[C@H](CO)NC(=O)[C@]2(C)CCCC=CCCC[C@@](C)(NC(=O)[C@H](CCC(=O)O)NC(C)=O)C(=O)N[C@@H]([C@@H](C)CC)C(=O)N[C@@H](CC(N)=O)C(=O)N2)CCCC=CCCC[C@@](C)(C(=O)N[C@@H](CO)C(=O)N[C@@H](CC(=O)O)C(=O)N[C@@H](CCC(=O)O)C(=O)N[C@@H](CC2CCCCC2)C(=O)N[C@@H](CC(C)C)C(=O)N[C@@H](Cc2c[nH]cn2)C(=O)N[C@@H](CC(N)=O)C(=O)N[C@H](C(N)=O)C(C)C)NC(=O)[C@H](CCCNC(=N)N)NC1=O [Peptide 4ca-var7, E Xaa2 IN Xaa5 SL Xaa8 FIR Xaa12 SDE Xaa16LHNV] |  | 0.231 ± 0.03 µM
9 | CC[C@H](C)[C@@H]1NC(=O)[C@H](Cc2ccccc2)NC(=O)[C@@](C)(NC(=O)[C@@H](NC(=O)[C@H](CO)NC(=O)[C@]2(C)CCCC=CCCC[C@@](C)(NC(=O)[C@H](CCC(=O)O)NC(C)=O)C(=O)N[C@@H]([C@@H](C)CC)C(=O)N[C@@H](CC(N)=O)C(=O)N2)C2CCCC2)CCCC=CCCC[C@@](C)(C(=O)N[C@@H](CO)C(=O)N[C@@H](CC(=O)O)C(=O)N[C@@H](CCC(=O)O)C(=O)N[C@@H](CC(C)C)C(=O)N[C@@H](CC(C)C)C(=O)N[C@@H](Cc2c[nH]cn2)C(=O)N[C@@H](CC(N)=O)C(=O)N[C@H](C(N)=O)C(C)C)NC(=O)[C@H](CCCNC(=N)N)NC1=O [Peptide 4ca-var2] |  | 1.49 ± 0.14 µM

From US11299518B2, “Fusion respiratory syncytial virus inhibitors and use thereof” (priority 2016, dated 2022)
